This passage reports Ki results from ChEMBL document CHEMBL2380262, “Pyrrolidine analogs of GZ-793A: synthesis and evaluation as inhibitors of the vesicular monoamine transporter-2 (VMAT2)” (Bioorg Med Chem Lett, 2013).

Protein sequences, listed by entry. Tags and fused reporters are not part of them.
UniProt Q01827, whole entry: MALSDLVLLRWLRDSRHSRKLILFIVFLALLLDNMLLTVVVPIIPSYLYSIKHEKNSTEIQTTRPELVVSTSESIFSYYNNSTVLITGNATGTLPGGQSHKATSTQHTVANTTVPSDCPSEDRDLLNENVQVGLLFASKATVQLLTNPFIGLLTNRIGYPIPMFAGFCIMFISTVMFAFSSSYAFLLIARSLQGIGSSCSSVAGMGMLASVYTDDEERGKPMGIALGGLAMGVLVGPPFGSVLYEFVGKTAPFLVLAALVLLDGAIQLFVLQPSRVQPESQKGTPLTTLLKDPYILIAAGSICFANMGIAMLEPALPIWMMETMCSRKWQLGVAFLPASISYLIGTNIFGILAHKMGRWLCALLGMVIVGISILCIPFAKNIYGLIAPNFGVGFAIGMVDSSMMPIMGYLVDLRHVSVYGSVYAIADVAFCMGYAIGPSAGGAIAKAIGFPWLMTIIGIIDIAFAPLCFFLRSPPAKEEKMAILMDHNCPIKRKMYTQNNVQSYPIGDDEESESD

In assay [1] the target is T1, Synaptic vesicular amine transporter (Rattus norvegicus, UniProt Q01827). As to the kind of experiment: Displacement of [3H]DTBZ from VMAT2 in Sprague-Dawley rat synaptic vesicle membranes after 30 mins by scintillation counting analysis. It is filed as cell membranes, Membrane. (In general: Loss of bound radioactivity is the signal in a displacement assay; it reports binding, not function.)

Assay [2] deals with T1, Synaptic vesicular amine transporter. As to the kind of experiment: Inhibition of VMAT2-mediated [3H]DA uptake in rat striatal synaptic vesicles by liquid scintillation spectroscopic analysis.

Structures are written as SMILES.

One may read the Ki as a measure of affinity in units of concentration, obtained from inhibition or displacement. Low readings indicate tighter binding, high ones weaker binding. For the compound `OC[C@H](O)CN1[C@H](CCc2cc(F)cc(F)c2)CC[C@@H]1CCc1cc(F)cc(F)c1`, the inhibition constant Ki in assay [1] turned out to be 4.06 µM; in assay [2] it was 0.2 µM.
